Source: patent US12227895B2, “Odor reduction and bacterial control on a textile material” (Microban Products Company, priority 2019, dated 2025)

System: bacteria
Settings: after 25 home launderings (FIG. 3)

O=C(O)c1ccccc1 [benzoic acid]
efficacy after home launderings: able to maintain efficacy following multiple washing cycles
